Our source for the Kd values is article PMC11241748, “DNA Repair Protein XRCC1 Stimulates Activity of DNA Polymerase λ under Conditions of Microphase Separation”.

Broadly, the Kd is the constant that tells how readily two partners part at equilibrium. Low values mean tighter binding, high ones weaker binding.

For this assay, the target named is Cy3-labeled XRCC1 (X-ray repair cross-complementing protein 1) (UniProt P18887). As to the kind of experiment: FRET or BRET; Cy3-XRCC1 constant at 30 nM, titrated with 0-8000 nM Cy5-labelled polymerase; decrease of donor fluorescence (excitation 530 nm, emission 580 nm); 50 mM HEPES-NaOH pH 8.0, 100 mM NaCl, 2 mM DTT; 25 °C. For orientation: In BRET a luciferase serves as donor, and the signal depends on an acceptor being close.

In turn, “Cy5-labeled DNA polymerase β (from UniProt P06766 1-335) (enzyme; other documents disagree on this pair)” showed a dissociation constant (Kd) of 29 nM.
